From ChEMBL document CHEMBL1687944, “Purification and inhibition studies with anions and sulfonamides of an α-carbonic anhydrase from the Antarctic seal Leptonychotes weddellii” (Bioorg Med Chem, 2011)

The chains behind the UniProt entries cited, without tags or fusion partners. Where a name states a change or a piece, a line headed by the entry shows the natural chain unless it says otherwise.
UniProt P00915: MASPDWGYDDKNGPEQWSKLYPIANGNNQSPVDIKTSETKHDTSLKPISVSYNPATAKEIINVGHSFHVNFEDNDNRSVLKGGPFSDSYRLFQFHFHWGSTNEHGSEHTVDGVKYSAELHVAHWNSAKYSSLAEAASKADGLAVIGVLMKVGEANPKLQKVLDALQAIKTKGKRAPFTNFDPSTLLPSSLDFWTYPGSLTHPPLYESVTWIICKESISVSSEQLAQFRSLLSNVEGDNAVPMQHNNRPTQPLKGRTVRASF

Target: Carbonic anhydrase 1 (Homo sapiens, UniProt P00915)

Row | Structure (SMILES) | Ki
1 | [Br-].[Na+] [SODIUM BROMIDE] | 4 mM
2 | [Cl-].[Na+] [SODIUM CHLORIDE] | 6 mM
3 | [F-].[Na+] [SODIUM FLUORIDE] | > 300 mM
